Results published in patent publication US9765358B2 (priority 2015, dated 2017).

System: chimera C-1
Test: Antibiotic disc susceptibility test
Conditions: same discs and plates, anaerobic, 48 hours, 37° C.

Compound: Cc1ncc([N+](=O)[O-])n1CCO [metronidazole]
- antibiotic susceptibility (disc, zone of clearance): resistance
